Test results from US8426420B2, “Heterocyclic pyrazole-carboxamidesas P2Y12 antagonists” (Sanofi, priority 2007, dated 2013).

Legend:
[1] = system: human platelet rich plasma; test: Inhibition of human platelet aggregation, 96-well assay; assay type: cell-based; conditions: 20 min
Procedure: (§1) Inhibition of Human Platelet Aggregation
(§2) Alternatively to a binding assay which measures a compound's ability to bind to the P2Y12 receptor, the effect on cellular function was also determined. This ability of the compound was evaluated in two platelet aggregation assays: in 96-well plates and with the “Born”-method using single cuvettes.
(§3) Whole blood was collected from healthy volunteers using 20 ml syringes containing 2 ml of ACD-A Aqua-Citrat-Dextrose-A, Fresenius). The anticoagulated whole blood was transferred into 15 ml polypropylene conical tubes (10 ml per tube). The tubes were centrifuged for 15 minutes at 150×g at RT without using the centrifuge brake. This procedure leads to a pellet of cellular components and a supernatant of platelet rich plasma (PRP). The PRP layer was collected from each tube and pooled for each donor. […] The platelet concentration was determined using a Coulter Counter. […]
The human platelet aggregation assay is performed in 96-well plates using a microtiter plate reader (SpectraMax Plus 384 with SoftMax Pro software from Molecular Devices). […] The plates are then transferred to the microplate reader and aggregation is measured over 20 minutes. […]
Absorbance at 650 nm, run time 20 minutes with readings in 1-minute intervals and 50 seconds shaking between readings all performed at 37° C. […]

[2] = system: human platelet rich plasma; test: Inhibition of human platelet aggregation, "Born"-method using single cuvettes; assay type: cell-based; conditions: 0.1 h, ADP-induced aggregation, 6 minutes
Procedure: as §1, §2
as §3, with “buffered Citrate.” for “ACD-A Aqua-Citrat-Dextrose-A, Fresenius).”, “340×g” for “150×g”
In the assay cuvette 4 μl of test compound at 100× final concentration in DMSO is mixed with 392 μl fresh PRP and incubated for 2 minutes at 37° C. with 1.200 rpm stirring. […] After that aggregation is measured over 6 minutes at 37° C. with 1.200 rpm stirring. Results of the assay are expressed as % inhibition, and are calculated using maximum aggregation (Tmax) or area under curve (AUC) of the absorbance over 6 minutes. […]

| SMILES | IC50 [1] | IC50 [2] |
| --- | --- | --- |
| CCOC(=O)N1CCN(C(=O)[C@H](CCNS(C)(=O)=O)NC(=O)c2cc(OCC(=O)N3CCC[C@H]3C(=O)NC3CCC3)n(-c3ccccc3)n2)CC1 [Example 94, 4-[(S)-2-({5-[2-((S)-2-Cyclobutylcarbamoyl-pyrrolidin-1-yl)-2-oxo-ethoxy]-1-phenyl-1H-pyrazole-3-carbonyl}-amino)-4-methanesulfonylamino-butyryl]-piperazine-1-carboxylic acid ethyl ester] | 0.13 µM |  |
| CCOC(=O)N1CCN(C(=O)[C@H](CCC(=O)O)NC(=O)c2cc(OCC(=O)N3CCC[C@H]3C(=O)NC3CCC3)n(-c3ccccc3)n2)[C@H](C)C1 [Example 150, (R)-4-[(S)-4-Carboxy-2-({5-[2-((S)-2-cyclobutylcarbamoyl-pyrrolidin-1-yl)-2-oxo-ethoxy]-1-phenyl-1H-pyrazole-3-carbonyl}-amino)-butyryl]-3-methyl-piperazine-1-carboxylic acid ethyl ester] |  | 0.021 µM |
| O=C(O)CC[C@H](NC(=O)c1cc(OCC(=O)N2CCC[C@H]2C(=O)NC2CCC2)n(-c2ccccc2)n1)C(=O)N1CCN(C(=O)OC2CCC2)CC1 [Example 163, 4-[(S)-4-Carboxy-2-({5-[2-((S)-2-cyclobutylcarbamoyl-pyrrolidin-1-yl)-2-oxo-ethoxy]-1-phenyl-1H-pyrazole-3-carbonyl}-amino)-butyryl]-piperazine-1-carboxylic acid cyclobutyl ester] |  | 0.042 µM |
| CCOC(=O)N1CCN(C(=O)[C@H](CCC(=O)O)NC(=O)c2cc(OCC(=O)N3CCC[C@H]3c3ccccc3)n(-c3ccccc3)n2)CC1 [Example 170, 4-[(S)-4-Carboxy-2-({5-[2-oxo-2-((S)-2-phenyl-pyrrolidin-1-yl)-ethoxy]-1-phenyl-1H-pyrazole-3-carbonyl}-amino)-butyryl]-piperazine-1-carboxylic acid ethyl ester] | 0.29 µM |  |
